Chains of the proteins cited; added tags and fusions are not shown.
UniProt P50637, whole entry: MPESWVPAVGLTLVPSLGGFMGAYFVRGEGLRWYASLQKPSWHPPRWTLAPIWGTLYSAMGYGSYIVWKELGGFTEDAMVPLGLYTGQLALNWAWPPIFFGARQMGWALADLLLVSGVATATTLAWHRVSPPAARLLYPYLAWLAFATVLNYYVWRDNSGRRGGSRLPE

In paper PMC2792720 (PLoS ONE, 2009):

Target: TSPO (Mus musculus, UniProt P50637)
Assay: Filtration radioligand binding assay, [^3H]-PK 11195 binding to DBT cell homogenates
Details: read-out: EC50, competition for [^3H]-PK 11195 binding

- EC50: 114 nM
SMILES: COc1ccc(NCCCCCCN)c(CN(C(C)=O)c2cc(F)ccc2Oc2ccccc2)c1
